Experiments:
[1] = test system: Monocotyledonous and dicotyledonous weed; assay: Pre-emergence test on weeds (greenhouse, sprayed immediately after sowing); details: fresh weight control rate; for activity level of plant damage (growth control rate), Zea mays: crop Zea mays; for activity level of plant damage (growth control rate), Descurainia sophia / activity level of plant damage (growth control rate), Digitaria sanguinalis / activity level of plant damage (growth control rate), Lolium multiflorum / activity level of plant damage (growth control rate), Setaria viridis: after 4 weeks in greenhouse
Source text: (§1) The criteria for activity levels of plant damage (i.e., growth control rate) are as follows: • Level 9: completely dead; • Level 8: growth control rate greater than or equal to 90% and less than 100%; • Level 7: growth control rate greater than or equal to 80% and less than 90%; • Level 6: growth control rate greater than or equal to 70% and less than 80%; • Level 5: growth control rate greater than or equal to 50% and less than 70%; • Level 4: growth control rate greater than or equal to 30% and less than 50%; • Level 3: growth control rate greater than or equal to 20% and less than 30%; • Level 2: growth control rate greater than or equal to 10% and less than 20%; • Level 1: growth control rate less than 10%; • Level 0: no effect.
(§2) The above growth control rates are fresh weight control rates.
Monocotyledonous and dicotyledonous weed seeds as well as major crop seeds were placed in plastic pots filled with soil and then covered with 0.5-2 cm of soil. The test compounds of the present invention were individually dissolved with acetone, then added with Tween® 80, diluted with certain amount of water to obtain solutions of certain concentrations, and sprayed immediately after sowing. After drug application, the experimental results on weeds were observed after 4 weeks of cultivation in a greenhouse. Table 3 Results of pre-emergence test on weeds

[2] = test system: Monocotyledonous and dicotyledonous weed; assay: Post-emergence test on weeds (greenhouse, spray tower); details: after 3 weeks of cultivation in a greenhouse, fresh weight control rate
Source text: as §1, §2
Monocotyledonous and dicotyledonous weed seeds as well as major crop seeds were placed in plastic pots filled with soil and then covered with 0.5-2 cm of soil to allow them grow in a favorable greenhouse environment. Two weeks after sowing, the test plants were treated. The test compounds of the present invention were individually dissolved with acetone, then added with Tween® 80 and the emulsifiable concentrate of methyl oleate as a synergist, diluted with certain amount of water to obtain solutions of certain concentrations, and sprayed to the plants using a spray tower. After drug application, the experimental results on weeds were collected after 3 weeks of cultivation in a greenhouse. Table 2 Results of post-emergence test on weeds

[3] = sprayed immediately after sowing, 240 g a.i./ha, observed after 4 weeks in greenhouse

SMILES	activity level (growth control rate), Digitaria sanguinalis [1, 3]	activity level (growth control rate), Setaria viridis [1, 3]	Digitaria sanguinalis, activity level of plant damage (growth control rate) ([2]; Dosage 60 g a.i./ha)	Echinochloa crus-galli, activity level of plant damage (growth control rate) ([2]; Dosage 60 g a.i./ha)	activity level of plant damage (growth control rate), Digitaria sanguinalis ([1]; Dosage 240 g a.i./ha)	activity level of plant damage (growth control rate), Setaria viridis ([1]; Dosage 240 g a.i./ha)	other results
C=C(C)[C@]1(C(=O)N[C@@H](C)C(=O)NOCCCOC)CC(c2cc(F)cc(Cl)c2)=NO1	9	9	8 (Level 8: growth control rate greater than or equal to 90% and less than 100%)	8 (Level 8: growth control rate greater than or equal to 90% and less than 100%)			
C=C(C)[C@]1(C(=O)N[C@@H](C)C(=O)NOCc2ncc(Cl)cc2F)CC(c2cc(F)cc(F)c2)=NO1	9	9	8 (Level 8: growth control rate greater than or equal to 90% and less than 100%)	8 (Level 8: growth control rate greater than or equal to 90% and less than 100%)			
C=C(C)[C@]1(C(=O)N[C@@H](C)C(=O)NOCC2CCCCC2)CC(c2cc(F)cc(F)c2)=NO1	9	9	8 (Level 8: growth control rate greater than or equal to 90% and less than 100%)	8 (Level 8: growth control rate greater than or equal to 90% and less than 100%)			
C#CC[C@H](NC(=O)[C@@]1(C(=C)C)CC(c2cc(Cl)cc(Cl)c2)=NO1)C(=O)NOCC	9	9	8 (Level 8: growth control rate greater than or equal to 90% and less than 100%)	6 (Level 6: growth control rate greater than or equal to 70% and less than 80%)			activity level of plant damage (growth control rate), Triticum aestivum ([1]; crop Triticum aestivum, sprayed immediately after sowing, 240 g a.i./ha, observed after 4 weeks in greenhouse): 0; activity level of plant damage (growth control rate), Zea mays [1, 3]: 0; Amaranthus retroflexus, activity level of plant damage (growth control rate) ([2]; Dosage 60 g a.i./ha): 6 (Level 6: growth control rate greater than or equal to 70% and less than 80%)
C=C(C)[C@]1(C(=O)N[C@@H](C)C(=O)NOCC(=O)NC)CC(c2cc(F)cc(F)c2)=NO1	9	9	8 (Level 8: growth control rate greater than or equal to 90% and less than 100%)	8 (Level 8: growth control rate greater than or equal to 90% and less than 100%)			
C=C(C)[C@]1(C(=O)N[C@@H](C)C(=O)NOC(C)C)CC(c2cc(F)cc(F)c2)=NO1			8 (Level 8: growth control rate greater than or equal to 90% and less than 100%)	6 (Level 6: growth control rate greater than or equal to 70% and less than 80%)	9	9	activity level of plant damage (growth control rate), Descurainia sophia ([1]; Dosage 240 g a.i./ha): 9; activity level of plant damage (growth control rate), Lolium multiflorum ([1]; Dosage 240 g a.i./ha): 9
C=C(C)[C@]1(C(=O)N[C@@H](C)C(=O)N2CCCCO2)CC(c2cc(F)cc(F)c2)=NO1			8 (Level 8: growth control rate greater than or equal to 90% and less than 100%)	8 (Level 8: growth control rate greater than or equal to 90% and less than 100%)	9	9	activity level of plant damage (growth control rate), Descurainia sophia ([1]; Dosage 240 g a.i./ha): 9; activity level of plant damage (growth control rate), Lolium multiflorum ([1]; Dosage 240 g a.i./ha): 9
C=C(C)[C@]1(C(=O)N[C@@H](C)C(=O)N2CCCO2)CC(c2cc(Cl)cc(Cl)c2)=NO1			8 (Level 8: growth control rate greater than or equal to 90% and less than 100%)	8 (Level 8: growth control rate greater than or equal to 90% and less than 100%)	9	9	Amaranthus retroflexus, activity level of plant damage (growth control rate) ([2]; Dosage 60 g a.i./ha): 6 (Level 6: growth control rate greater than or equal to 70% and less than 80%)
C=C(C)[C@]1(C(=O)N[C@@H](C)C(=O)N(C)OC)CC(c2cc(F)cc(F)c2)=NO1					9	9	activity level of plant damage (growth control rate), Lolium multiflorum ([1]; Dosage 240 g a.i./ha): 9; Avena fatua, activity level of plant damage (growth control rate) ([2]; Dosage 240 g a.i./ha): 8 (Level 8: growth control rate greater than or equal to 90% and less than 100%); Digitaria sanguinalis, activity level of plant damage (growth control rate) ([2]; Dosage 240 g a.i./ha): 8 (Level 8: growth control rate greater than or equal to 90% and less than 100%); Echinochloa crus-galli, activity level of plant damage (growth control rate) ([2]; Dosage 240 g a.i./ha): 9
C=C(C)[C@]1(C(=O)N[C@@H](C)C(=O)NOCC(=O)O)CC(c2cc(F)cc(F)c2)=NO1	8 (Level 8: growth control rate greater than or equal to 90% and less than 100%)	7 (Level 7: growth control rate greater than or equal to 80% and less than 90%)	8 (Level 8: growth control rate greater than or equal to 90% and less than 100%)	8 (Level 8: growth control rate greater than or equal to 90% and less than 100%)			
C=C(C)[C@]1(C(=O)N[C@H](C(=O)NOCC)C2CC2)CC(c2cc(F)cc(F)c2)=NO1			6 (Level 6: growth control rate greater than or equal to 70% and less than 80%)	8 (Level 8: growth control rate greater than or equal to 90% and less than 100%)	8 (Level 8: growth control rate greater than or equal to 90% and less than 100%)	6 (Level 6: growth control rate greater than or equal to 70% and less than 80%)	Amaranthus retroflexus, activity level of plant damage (growth control rate) ([2]; Dosage 60 g a.i./ha): 6 (Level 6: growth control rate greater than or equal to 70% and less than 80%)
C=C[C@]1(C(=O)N[C@H](C)C(=O)N(C)OC)CC(c2cc(F)cc(F)c2)=NO1							activity level of plant damage (growth control rate), Descurainia sophia ([1]; Dosage 250 g a.i./ha): 6 (Level 6: growth control rate greater than or equal to 70% and less than 80%); activity level of plant damage (growth control rate), Digitaria sanguinalis ([1]; Dosage 250 g a.i./ha): 9; activity level of plant damage (growth control rate), Lolium multiflorum ([1]; Dosage 250 g a.i./ha): 9; activity level of plant damage (growth control rate), Setaria viridis ([1]; Dosage 250 g a.i./ha): 9; Avena fatua, activity level of plant damage (growth control rate) ([2]; Dosage 240 g a.i./ha): 9
C=C(C)[C@]1(C(=O)N[C@@H](C)C(=O)NOCC#CC2CC2)CC(c2cc(Cl)cc(Cl)c2)=NO1	9	9	8 (Level 8: growth control rate greater than or equal to 90% and less than 100%)	8 (Level 8: growth control rate greater than or equal to 90% and less than 100%)			activity level of plant damage (growth control rate), Zea mays [1, 3]: 0; Amaranthus retroflexus, activity level of plant damage (growth control rate) ([2]; Dosage 60 g a.i./ha): 6 (Level 6: growth control rate greater than or equal to 70% and less than 80%)
C=C(C)[C@]1(C(=O)N[C@@H](C)C(=O)NOCC2CC2)CC(c2cc(F)cc(Cl)c2)=NO1	9	9	8 (Level 8: growth control rate greater than or equal to 90% and less than 100%)	8 (Level 8: growth control rate greater than or equal to 90% and less than 100%)			

Reference: EP4837910A1, “ISOXAZOLINE COMPOUND AND PREPARATION METHOD THEREFOR, HERBICIDAL COMPOSITION, AND USE” (dated 2026)
